Experimental data published in US20250032527A1, “MEDICAL USE OF N4-HYDROXY CITICOLINE COMPOUNDS” (IMMUNIC AG, priority 2021, published 2025).

Key:
[1] = system: respiratory syncytial virus (RSV) A2
SARS-COV-2 = type: cell-based
[2] = system: human rhinovirus 14 (HRV-14)
[3] = system: influenza A (H1N1, California/07/2009)

## C[N+](C)(C)CCOP(=O)([O-])OP(=O)([O-])OC[C@H]1O[C@@H](n2ccc(NO)nc2=O)[C@H](O)[C@@H]1O.[Na+] [Example 1, 2-(((((((2R,3S,4R,5R)-3,4-Dihydroxy-5-(4-(hydroxyamino)-2-oxopyrimidin-1 (2H)-yl)tetrahydrofuran-2-yl)methoxy) (hydroxy)phosphoryl)oxy)oxidophosphoryl)oxy)-N,N,N-trimethylethan-1-aminium mono sodium salt]
[1]
  SI: 2.2
SARS-COV-2
  SI: >10
[2]
  SI: >5.8
[3]
  SI: 5.2
